# This is a sample that favours compounds with a hit; in the whole collection about 2.8% have one here.
# MITF act = activators of MITF-driven TRPM1 promoter reporter, primary screen, cell-based, SK-MEL-5, luciferase, single point. actives 0.75% (n = 300,000). SK-MEL-5 TRPM1-promoter luciferase, 24 h; % of positive control, neutral wells = 0. activation, % at 12.5 µM;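 active means mean activation of at least 80% with every replicate also reaching 80%; inconclusive means mean reaches 80% but some replicate falls short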;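 further: 0% = neutral control wells and 100% = parthenolide positive control wells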
# miR122 inh = miR-122 Renilla sensor signal increase in Huh7, primary screen, miR-122 inhibitor project, cell-based, single point, plate reader. Huh7 miR-122 Renilla luciferase sensor, 48 h; neutral wells = 0, positive control = 100. activation (reporter increase), % at 12.5 µM. actives 0.3% (n = 340,000). AID 602342, 2012;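 active means mean replicate activation score at least 90 and every replicate individually at or above 90; inconclusive means only one of the two criteria met; inactive means neither criterion met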;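 further: higher luciferase means less miR-122 activity so hits act as miR-122 inhibitors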
# Wnt bcat act = Wnt/beta-catenin pathway activators, primary screen, cell-based, plate reader, single point | Wnt/beta-catenin reporter cell assay, activator | activation, % at 9.35 µM | actives 1.2% (n = 300,000); in the data active means activation above about 30%, passing the limit was not always enough; inconclusive means no clear call, values can overlap the other calls;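 further: 0% = neutral control wells and 100% = positive control wells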
# UUG fidelity = modulators of yeast start codon fidelity, primary screen, whole organism, S. cerevisiae, single point, plate reader | AID 602363, 2012 | S. cerevisiae UUG-firefly luciferase reporter, luminescence/redox ratio | activity score, % at 18.7 µM | hit rate 0.13% among 350,000;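 active = replicate mean at a twofold rise or more, about +100% in these data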;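 also: firefly luciferase made from a UUG start codon reports start codon fidelity; reporter light over untreated wells divided by growth signal over untreated wells; some hits fall short of that in this replicate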
# esBAF inh = Bmi1 luciferase reporter increase in mESCs, primary screen, esBAF inhibitor project, mouse ES cells, Bmi1 luciferase knock-in, single point; reporter increase, % at 12.5 µM; 24 h; 100% = twice the neutral-well signal; actives 2% (n = 350,000); in the data active means activation above about 40%; inconclusive means no clear call, values can overlap the other calls;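 further: 0% = median of the plate's neutral control wells and 100% = double that signal; a rise in the Bmi1 reporter signal indicates esBAF inhibition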
# PglD DTNB = C. jejuni PglD acetyltransferase inhibitors, primary screen, biochemical, DTNB colorimetric, single point; UDP-N-acetylbacillosamine N-acetyltransferase PglD (Campylobacter jejuni); purified PglD enzyme, DTNB colorimetric CoA detection; inhibition, % at 12.5 µM; actives 0.098% (n = 360,000); in the data active means inhibition above about 16%, passing the limit was not always enough; inconclusive means no clear call, values can overlap the other calls
# * = called active by the depositor; ? = inconclusive; / = no result given; [ ] = dose if it differs, or a comment.
# Codes – A = MITF act; B = miR122 inh; C = Wnt bcat act; D = UUG fidelity; E = esBAF inh; F = PglD DTNB
1) Brc1ccc(OCCCOc2cccc3cccnc23)cc1
  A: /	B: 0.8	C: 3.8	D: -5.1	E: 71.5*	F: 5.6

2) O=C(CC1CC1)N[C@H]1CC[C@H](CCNS(=O)(=O)c2ccc(F)cc2)O[C@@H]1CO
  A: /	B: /	C: /	D: -3.0	E: 1.9	F: 2.9

3) Oc1ccccc1-c1n[nH]c(-c2ccccc2O)n1
  A: 7.8	B: /	C: 4.2	D: /	E: /	F: /

4) Clc1ccccc1-c1nc(-c2ccccc2)n[nH]1
  A: 48.7	B: 11.3	C: 63.6*	D: -13.9	E: 36.6	F: 1.7

5) C[C@H](CO)N1C[C@H](C)[C@@H](CN(C)C(=O)C2CCCCC2)Oc2cc(C3=CCCCC3)ccc2S1(=O)=O
  A: /	B: 41.9[16.7 µM]	C: /	D: 6.9	E: 1.6	F: -1.9

6) CC(=O)c1ccc(Nc2ccc(-c3ccccc3F)nn2)cc1
  A: 72.5	B: 8.7	C: 30.8*	D: -9.4	E: ?	F: 0.3

7) COc1ccccc1-c1ccc(Nc2ccc(C(=O)N3CCOCC3)cc2)nn1
  A: 3.0	B: 0.4	C: /	D: 16.1	E: 9.2	F: -1.8

8) O=C(N[C@H]1CC[C@@H](CC(=O)N2CCc3ccccc3C2)O[C@@H]1CO)C1CC1
  A: /	B: /	C: /	D: -12.4	E: -0.2	F: -0.9

9) CO[C@@H]1CN(C)C(=O)c2ccc(NS(C)(=O)=O)cc2OC[C@H](C)N(CC2CCCCC2)C[C@H]1C
  A: /	B: /	C: /	D: /	E: -6.6	F: 7.4

10) c1ccc2oc(-c3ccn[nH]3)cc2c1
  A: /	B: -2.1	C: 40.0*	D: -12.9	E: /	F: 4.3

11) c1ccc2oc(-c3[nH]ncc3CN3CCSCC3)cc2c1
  A: -11.7	B: /	C: -0.9	D: /	E: /	F: /

12) CCOC(=O)N1CCN(C(=O)c2cc(COc3cccc(C(C)=O)c3)on2)CC1
  A: 10.1	B: -1.8	C: 9.7	D: -14.5	E: 42.2*	F: 0.5

13) CC(=O)c1cccc(OCc2cc(C(=O)NCc3nc(C)c(C)s3)no2)c1
  A: 67.8	B: /	C: 10.3	D: -3.1	E: 48.0*	F: -4.8

14) CC(=O)c1ccc(OCc2cc(C(=O)N3CCOCC3)no2)cc1
  A: 65.0	B: -9.4	C: 16.2	D: -8.3	E: 61.2*	F: 5.4

15) CC(=O)c1ccc(OCc2cc(C(=O)N3CCCCCCC3)no2)cc1
  A: 11.4	B: /	C: 6.9	D: -9.9	E: 16.3	F: -2.9

16) CCOC(=O)N1CCN(C(=O)c2cc(COc3ccc4ncccc4c3)on2)CC1
  A: -22.7	B: -11.6	C: -0.9	D: -18.1	E: -14.1	F: -1.6

17) C[C@H](CO)N1C[C@H](C)[C@H](CN(C)S(=O)(=O)c2cccc(C#N)c2)OCc2ccccc2-c2c(n(C)c3ccccc23)C1=O
  A: /	B: /	C: /	D: /	E: 5.6	F: 7.1

18) O=C(C[C@H]1CC[C@@H](NC(=O)Nc2ccccc2F)[C@H](CO)O1)NCc1ccccc1
  A: /	B: /	C: /	D: -0.1	E: 0.7	F: 3.9

19) Cc1noc(C)c1S(=O)(=O)Nc1ccc2c(c1)C(=O)N([C@@H](C)CO)C[C@@H](C)[C@H](CN(C)S(=O)(=O)c1cn(C)cn1)OCCCC[C@@H](C)O2
  A: /	B: -6.6[16.7 µM]	C: /	D: -0.2	E: 6.0	F: 0.6

20) CC(C)NC(=O)Nc1ccc2c(c1)C(=O)N(C)[C@H]1CC[C@H](CC(=O)Nc3ccccc3)O[C@H]1CO2
  A: /	B: -2.1[16.7 µM]	C: /	D: 6.7	E: 1.8	F: -1.1

21) COc1ccc2cc3cc(C(=O)N(C)C4CCCCC4)oc3nc2c1
  A: 67.9	B: 7.3	C: 1.0	D: -13.5	E: 50.6*	F: 4.7

22) O=C(Nc1ccc(F)cc1)c1ccccc1NC(=O)C1CC=CCC1C(=O)O (stereo unspecified)
  A: 3.1	B: -0.6	C: 5.9	D: -7.8	E: 6.9	F: 0.6

23) COC(=O)c1ccccc1NC(=O)C1CCCCC1C(=O)O (stereo unspecified)
  A: -7.4	B: 19.3	C: /	D: -4.3	E: 0.0	F: -2.6

24) CC(C)c1ccc(NC(=O)c2ccccc2NC(=O)C2CC=CCC2C(=O)O)cc1 (stereo unspecified)
  A: 46.7	B: -6.1	C: 14.7	D: 14.5	E: 51.3*	F: -3.2

25) O=C(Nc1ccc(F)c(Cl)c1)c1ccccc1NC(=O)C1CCCCC1C(=O)O (stereo unspecified)
  A: /	B: -12.6	C: 3.7	D: 7.5	E: 66.3*	F: -2.1

26) O=C(Nc1ccc(F)cc1)c1ccccc1NC(=O)C1CCCCC1C(=O)O (stereo unspecified)
  A: /	B: /	C: 4.7	D: -11.0	E: 8.8	F: -4.3

27) COc1ccc(NC(=O)c2ccccc2NC(=O)C2CCCCC2C(=O)O)cc1 (stereo unspecified)
  A: /	B: -7.4	C: 37.7*	D: 2.5	E: 50.6*	F: 4.5

28) CC(C)c1ccc(NC(=O)c2ccccc2NC(=O)C2CCCCC2C(=O)O)cc1 (stereo unspecified)
  A: 48.9	B: -3.0	C: 35.1*	D: 1.9	E: 64.4*	F: -3.5

29) C[C@H]1CN([C@@H](C)CO)C(=O)c2cc(C#CC3CCCCC3)cnc2O[C@H]1CN(C)C(=O)NC1CCCC1
  A: /	B: -1.2[16.7 µM]	C: /	D: 24.2	E: -4.3	F: 7.1

30) CN(C)c1cccc(C(=O)NC2CCCCCC2)c1
  A: 59.2	B: 1.0	C: /	D: -9.3	E: 44.0*	F: 4.2

31) Cc1cccc(C(=O)NC2CCCCCCC2)c1
  A: 73.1	B: -0.1	C: 14.7	D: -5.1	E: 64.6*	F: 3.9

32) Cc1cc(C(=O)NC2CCCCCCC2)ccc1[N+](=O)[O-]
  A: /	B: 1.0	C: 48.0*	D: -7.1	E: 66.2*	F: 0.7

33) CC(=O)c1cccc(NC(=O)NC2CCCCCCC2)c1
  A: 10.2	B: 61.6	C: 0.4	D: -10.8	E: /	F: 1.3

34) Cc1cc(C(=O)OCC(=O)NC2CC2)ccc1[N+](=O)[O-]
  A: 4.4	B: 3.1	C: 0.8	D: -14.8	E: 3.1	F: -8.2

35) Cc1cccc(NC(=O)NC2CCCCCCC2)c1
  A: 36.3	B: 8.7	C: 20.5	D: 2.5	E: 62.2*	F: -1.7

36) Cc1ccc(C(=O)Nc2cccc(C(=O)NC3CCCCC3)c2)cc1
  A: -3.5	B: 8.4	C: 2.1	D: -8.2	E: 2.6	F: 6.5

37) COc1cccc(C(=O)NC2CCCC2)c1
  A: 5.6	B: -4.1	C: 1.4	D: 7.3	E: 18.7	F: -0.3

38) C[C@@H]1CN([C@H](C)CO)C(=O)c2cc(C#CC3CC3)cnc2O[C@H]1CN(C)C(=O)c1ccc(F)cc1
  A: /	B: 2.3[16.7 µM]	C: /	D: 32.8	E: 0.8	F: 0.7

39) Cc1ccc(-n2nnnc2SCC(=O)N2c3ccccc3NC(=O)C2(C)C)cc1
  A: /	B: 160.3*	C: /	D: 5.1	E: 12.2	F: -3.9

40) Nc1nc(Nc2ccccc2F)nc(N2CCCC2)c1[N+](=O)[O-]
  A: 87.8*	B: -7.4	C: 26.9	D: -5.8	E: 69.9*	F: -3.6

41) CCN1CCN(c2nc(Nc3ccccc3F)nc(N)c2[N+](=O)[O-])CC1
  A: /	B: -0.5	C: 3.4	D: -19.9	E: 7.4	F: -6.6

42) Nc1nc(-c2c[nH]c3ccccc23)cs1
  A: 17.2	B: 8.1	C: 2.6	D: -15.3	E: -1.1	F: -8.4

43) CCc1ccc(-c2csc(-c3c[nH]c4ccccc34)n2)cc1
  A: 67.8	B: 4.8	C: /	D: -10.6	E: 65.9*	F: -1.0

44) Fc1ccc(-c2cc3nc4c(c(N5CCOCC5)n3n2)CCCC4)cc1
  A: 29.4	B: -7.1	C: 9.5	D: -11.4	E: 53.5*	F: -2.7

45) OC1CCCN(c2c3c(nc4cc(-c5cccc(F)c5)nn24)CCCC3)C1 (stereo unspecified)
  A: 87.0*	B: /	C: 14.0	D: /	E: /	F: /

46) Cc1cccc(-c2cc3nc4c(c(N5CCCC(O)C5)n3n2)CCC4)c1 (stereo unspecified)
  A: 7.9	B: -0.1	C: 2.6	D: -9.1	E: 8.2	F: -5.2

# Some entries already given, showing only PglD DTNB and miR122 inh:
item	Structure	PglD DTNB	miR122 inh
41	CCN1CCN(c2nc(Nc3ccccc3F)nc(N)c2[N+](=O)[O-])CC1	-6.6	-0.5
42	Nc1nc(-c2c[nH]c3ccccc23)cs1	-8.4	8.1

# miR122 inh, what is marked active above
# Codes – A = MITF act; B = miR122 inh; C = Wnt bcat act; D = UUG fidelity; E = esBAF inh; F = PglD DTNB
39) Cc1ccc(-n2nnnc2SCC(=O)N2c3ccccc3NC(=O)C2(C)C)cc1
  A: /	B: 160.3*	C: /	D: 5.1	E: 12.2	F: -3.9
